Source: patent US20030133931A1 (priority 2001, published 2003)

Amino acid sequences for entries named in this document (tags omitted). A change or cut given only in a name is not applied to a line headed by its entry.
UniProt Q91ZY1: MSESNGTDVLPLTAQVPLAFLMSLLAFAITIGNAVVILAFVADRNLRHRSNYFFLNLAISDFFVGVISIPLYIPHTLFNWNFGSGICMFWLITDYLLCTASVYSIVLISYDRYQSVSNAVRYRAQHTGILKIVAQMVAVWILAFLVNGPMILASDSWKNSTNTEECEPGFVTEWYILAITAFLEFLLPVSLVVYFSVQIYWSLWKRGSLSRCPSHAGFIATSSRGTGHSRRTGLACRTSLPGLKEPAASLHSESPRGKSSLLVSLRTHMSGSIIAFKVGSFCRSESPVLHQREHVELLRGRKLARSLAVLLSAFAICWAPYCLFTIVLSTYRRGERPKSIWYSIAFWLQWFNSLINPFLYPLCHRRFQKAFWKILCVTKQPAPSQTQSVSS

Molecular target: rat histamine H4 receptor (Rattus norvegicus, UniProt Q91ZY1)
Settings: read-out: ^3H-histamine Kd, Scatchard plot

^3H-histamine
Kd: 0.105 µM
